Experimental data from patent publication US20030235860A1, “Interactions between AR, ER, TR2, and TR4” (priority 1999, published 2003).

By UniProt entry, the sequences of proteins in these tests, tags left out. Chains listed by the source or under a name are the forms on record and can include a tag or linker.
UniProt P10275, with tags, fused parts or gaps DEL79-80/DUP473-473: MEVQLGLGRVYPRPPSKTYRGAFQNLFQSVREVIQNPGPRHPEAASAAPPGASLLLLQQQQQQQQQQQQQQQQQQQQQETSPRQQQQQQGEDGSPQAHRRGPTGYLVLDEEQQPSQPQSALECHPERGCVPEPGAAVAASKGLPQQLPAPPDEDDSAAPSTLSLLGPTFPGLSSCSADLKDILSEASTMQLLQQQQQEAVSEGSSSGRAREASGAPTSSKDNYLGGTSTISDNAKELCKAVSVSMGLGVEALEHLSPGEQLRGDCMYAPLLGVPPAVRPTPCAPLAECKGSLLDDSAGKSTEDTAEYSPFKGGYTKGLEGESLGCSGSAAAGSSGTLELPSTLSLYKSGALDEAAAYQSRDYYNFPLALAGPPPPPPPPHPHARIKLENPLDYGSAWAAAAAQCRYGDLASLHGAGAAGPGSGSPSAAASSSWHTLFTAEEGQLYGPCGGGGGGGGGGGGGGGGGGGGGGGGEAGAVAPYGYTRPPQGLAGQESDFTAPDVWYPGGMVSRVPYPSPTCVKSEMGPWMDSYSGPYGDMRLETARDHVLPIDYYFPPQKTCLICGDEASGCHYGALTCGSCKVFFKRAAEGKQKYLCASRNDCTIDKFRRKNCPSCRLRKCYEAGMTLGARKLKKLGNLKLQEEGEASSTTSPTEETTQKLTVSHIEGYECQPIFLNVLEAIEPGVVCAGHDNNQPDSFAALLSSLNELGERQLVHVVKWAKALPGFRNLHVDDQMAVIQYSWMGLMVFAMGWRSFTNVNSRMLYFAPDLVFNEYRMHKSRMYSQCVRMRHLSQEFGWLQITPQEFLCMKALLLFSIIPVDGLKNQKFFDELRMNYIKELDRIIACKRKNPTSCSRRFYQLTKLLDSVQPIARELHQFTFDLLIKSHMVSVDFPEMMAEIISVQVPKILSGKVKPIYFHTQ

Molecular target: T1, interaction between AR and TR4 (Homo sapiens, UniProt P10275, DEL79-80/DUP473-473)
T1 construct: A full-length AR(pSG5AR) was co-transfected with GAL4-TR4E; expressed in transfected cells; host or cells: H1299
Assay: Modified mammalian one-hybrid system pSG5AR / GAL4-TR4E
Assay type: cell-based
Settings: H1299 cells; GAL4-TR4E + PG5-Luc

B1: PR: progesterone receptor (protein)
chain: MTELKAKGPRAPHVAGGPPSPEVGSPLLCRPAAGPFPGSQTSDTLPEVSAIPISLDGLLFPRPCQGQDPSDEKTQDQQSLSDVEGAYSRAEATRGAGGSSSSPPEKDSGLLDSVLDTLLAPSGPGQSQPSPPACEVTSSWCLFGPELPEDPPAAPATQRVLSPLMSRSGCKVGDSSGTAAAHKVLPRGLSPARQLLLPASESPHWSGAPVKPSPQAAAVEVEEEDGSESEESAGPLLKGKPRALGGAAAGGGAAAVPPGAAAGGVALVPKEDSRFSAPRVALVEQDAPMAPGRSPLATTVMDFIHVPILPLNHALLAARTRQLLEDESYDGGAGAASAFAPPRSSPCASSTPVAVGDFPDCAYPPDAEPKDDAYPLYSDFQPPALKIKEEEEGAEASARSPRSYLVAGANPAAFPDFPLGPPPPLPPRATPSRPGEAAVTAAPASASVSSASSSGSTLECILYKAEGAPPQQGPFAPPPCKAPGASGCLLPRDGLPSTSASAAAAGAAPALYPALGLNGLPQLGYQAAVLKEGLPQVYPPYLNYLRPDSEASQSPQYSFESLPQKICLICGDEASGCHYGVLTCGSCKVFFKRAMEGQHNYLCAGRNDCIVDKIRRKNCPACRLRKCCQAGMVLGGRKFKKFNKVRVVRALDAVALPQPVGVPNESQALSQRFTFSPGQDIQLIPPLINLLMSIEPDVIYAGHDNTKPDTSSSLLTSLNQLGERQLLSVVKWSKSLPGFRNLHIDDQITLIQYSWMSLMVFGLGWRSYKHVSGQMLYFAPDLILNEQRMKESSFYSLCLTMWQIPQEFVKLQVSQEEFLCMKVLLLLNTIPLEGLRSQTQFEEMRSSYIRELIKAIGLRQKGVVSSSQRFYQLTKLLDNLHDLVKQLHLYCLNTFIQSRALSVEFPEMMSEVIAAQLPKILAGMVKPLLFHKK
  Induction when AR was replaced with other activated steroid receptors: no induction
